# Assay results: patent US6482837B1 (priority 1998, dated 2002)
# Legend:
# [1] = in vivo; cited from earlier work
# miniature swine bladder = details: in vivo
# guinea pig bladder = details: in vivo
# [2] = in vivo; cited from earlier work; remark: listed apart in the source
# [3] = human, in vivo; cited from earlier work
smiles,measurement,setting,value
"CCN(CC)CC#CCOC(=O)C(O)(c1ccccc1)C1CCCCC1 (stereo not drawn) [Oxybutynin, (4-diethylamino)-2-butynyl-α-cyclohexyl-α-hydroxybenzeneacetate HCl]",mean bladder capacity increase,[1],41%
same,mean intravesical pressure decrease,[1],47%
same,patients who achieved continence,[1],Five of 28
same,patients with less wetting,[1],62%
same,Body Temp increase ° C.,miniature swine bladder,0 °C
same,Heart rate % increase,miniature swine bladder,0%
same,effect of intravesical administration on micturition,miniature swine bladder,increased duration of micturition
same,bladder volume,guinea pig bladder,increase in volume
same,fall in peak intravesical pressure,guinea pig bladder,about 70%
same,peak intravesical pressure,guinea pig bladder,significant fall
same,prolongation of the drug's action,[2],about 3 fold
same,"Severe mouth dryness, subjects",[3],84%

# Counter-ions that a name gives are not always drawn.
